# Laboratory results: BindingDB's records for PubMed 3139864 (Vanderbilt University, 1988)
# Target: T1, 5-hydroxytryptamine receptor 2C (Rattus norvegicus, UniProt P08909)
# T1 sequence (P08909 whole entry): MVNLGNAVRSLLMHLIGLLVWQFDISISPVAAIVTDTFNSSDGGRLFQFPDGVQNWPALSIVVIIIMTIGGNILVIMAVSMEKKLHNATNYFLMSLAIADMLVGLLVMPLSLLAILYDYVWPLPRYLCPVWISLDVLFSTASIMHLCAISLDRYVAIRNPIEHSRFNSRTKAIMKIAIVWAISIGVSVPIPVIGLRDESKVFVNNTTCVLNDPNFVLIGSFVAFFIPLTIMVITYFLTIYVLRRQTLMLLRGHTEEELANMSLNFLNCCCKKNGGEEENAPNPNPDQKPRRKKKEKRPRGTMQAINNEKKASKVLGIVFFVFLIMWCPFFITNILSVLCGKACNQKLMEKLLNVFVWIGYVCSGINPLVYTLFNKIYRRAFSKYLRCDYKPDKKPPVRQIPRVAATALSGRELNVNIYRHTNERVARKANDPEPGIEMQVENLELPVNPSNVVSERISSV
row,Compound,Ki
1,Cc1nc2sccn2c(=O)c1CCN1CCC(=C(c2ccc(F)cc2)c2ccc(F)cc2)CC1,0.2 nM
2,CN1C[C@@H](NS(=O)(=O)N(C)C)C[C@@H]2c3cccc4c3c(cn4C)C[C@H]21 [MESULERGINE],1 nM
